According to US6833372B2, “Non-peptide GnRH agents, Pharmaceutical compositions, and methods for their use” (Pfizer, Inc., priority 2002, dated 2004):

Target: T1, GGH3 cells (GH3 cells stably transfected with the rat GnRH receptor) (Rattus norvegicus, UniProt P30969)
T1 construct: host or cells: GH3 cells stably transfected (GGH3), whole cells
T1 sequence (P30969 1-327): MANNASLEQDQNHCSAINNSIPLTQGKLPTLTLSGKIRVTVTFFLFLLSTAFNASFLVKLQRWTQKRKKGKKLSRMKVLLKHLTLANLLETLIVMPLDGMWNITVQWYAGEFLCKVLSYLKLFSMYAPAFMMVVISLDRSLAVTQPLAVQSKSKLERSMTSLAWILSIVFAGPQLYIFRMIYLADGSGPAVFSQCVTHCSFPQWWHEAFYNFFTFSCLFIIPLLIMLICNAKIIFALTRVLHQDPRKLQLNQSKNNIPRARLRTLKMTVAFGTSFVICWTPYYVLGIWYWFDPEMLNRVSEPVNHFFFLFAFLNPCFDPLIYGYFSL
Assay: Effect of compounds on 125I-GnRH-A binding to GGH3 cells (competition radioligand binding, whole cells)
Conditions: on ice 2 hr
Method: Cell Culture. GGH3 cells (Dr. William Chin, Harvard Medical School, Boston, Mass.) are grown in low glucose Dulbecco's modified Eagle's medium (DMEM) containing 100 U/mL penicillin/streptomycin, 0.6 g/L G418 and 10% heat-inactivated FBS.
The radioiodinated agonist analog of GnRH, ^125I-GnRH-A, is used as the radioligand. One μg of GnRH-A diluted in 0.1M acetic acid is added to an Ioogen®-coated borosilicate glass tube (Pierce) containing 35 μl of 0.05 M phosphate buffer (pH 7.4-7.6) and 1 mCi of Na[^125I]. The reaction mixture is vortexed and incubated for 1 min at room temperature. […] Fractions are assessed for biological activity by radioligand binding.
Approximately two million GGH3 cells/tube are utilized for radioligand binding. ^125I-GnRH-A (approximately 0.1-0.3 nM) is incubated with cells in the presence or absence of competing agents in a final volume of 300 μl binding assay buffer [50 mM HEPES (pH 7.4), 1 mM EDTA, 2.5 mM MgCl2, and 0.1% BSA] to test the ability of compounds to displace agonist binding. […] Filters are counted on a gamma counter.
In order to assess the specific functionality, compounds were assessed for their ability to inhibit ^125I-GnRH-A binding to GGH3 cells. […]

[D-Ala^6, des-Gly^10]proethylamide^9-LHRH [GnRH-A]
ability to inhibit 125I-GnRH-A binding to GGH3 cells: blocked
